{"source": "patent US5965720A", "about": "“Oligonucleotide N3'→P5' phosphoramidates” (Lynx Therapeutics, Inc., priority 1997, dated 1999)", "tested_on": "snake venom phosphodiesterase", "assay": "Stability toward hydrolysis by snake venom phosphodiesterase (RP HPLC)", "type": "in vitro ADME, Crotalus durissus", "details": "after 10 minutes; 0.22 U phosphodiesterase, 10 mM Tris HCl, 10 mM MgCl2"}
{"substance": "phosphodiester decathymidilic acid", "values": [{"measurement": "extent of hydrolysis by snake venom phosphodiesterase", "value": "completely hydrolyzed"}]}
